# Results: paper PMC5988692, “AZ304, a novel dual BRAF inhibitor, exerts anti-tumour effects in colorectal cancer independently of BRAF genetic status” (British Journal of Cancer, 2018)
# Legend:
# Caco-2 xenografts = assay: Xenograft study (tumour growth, immunohistochemistry); assay type: in vivo, athymic BALB/c nude mice
# Experimental: (§1) All in vivo experiments were performed in accordance with Institutional Review Board of China Medical University guidelines. Female 4–6 weeks old athymic BALB/c nude mice were purchased from Shanghai SLAC Laboratory Animal Centre (Shanghai, China). RKO/Caco-2 cells (1 × 10^7) in 200 μl PBS were injected subcutaneously into the right scapular region of mice. […] Tumours were measured with a caliper every 2 days, so did body weights. Tumour volume was calculated using the formula V = 1/2 (width^2 × length). Mice were terminated by CO2 inhalation when the tumour diameters reached 1.5 cm, according to the protocol filed with the Guidance of Institutional Animal Care and Use Committee of China Medical University.
# (§2) Tumours were formalin-fixed, paraffin-embedded and prepared as described in our previous study for staining with haematoxylin and eosin.[19] The immunohistochemical antibodies Ki67, p-ERK, p-EGFR and p-AKT have been described already. The staining was evaluated by scanning the entire tissue specimen under low magnification (×10) and confirmed under high magnification (×20 and ×40). The protein expression was visualised and classified based on the percentage of positive cells and the intensity of staining. From each section, five visual fields were randomly selected. The degree of protein expression was based on the percentage of positive cells and the intensity of staining. Staining intensity was scored as 0 (no staining), 1 (low staining), 2 (intermediate staining), and 3 (high staining). For the staining area, ≤5%, 5–25%, 26–50, 51–75% >75% were recorded as 0, 1, 2, 3 and 4 points, respectively. Histological score = staining intensity × staining area. A score 0 was classified as negative (−), 1–4 points as weakly positive (+), 6–12 points as a strong positive (++). Final scores were assigned by two independent pathologists.
# (§3) In vivo subcutaneous tumour growth curves were shown for RKO (c) and Caco-2 (d) cells in vivo. Student’s t-tests were used for statistical analyses. Data are plotted as mean ± SD. P values were labelled in the figures. e Tumour tissue from RKO and Caco-2 xenografts treated for 10 days as indicated was evaluated by IHC for Ki67, p-ERK, p-AKT and p-EGFR. Tumours were harvested 4 h after dosing on day 10
# RKO xenografts = assay: as above; assay type: in vivo, athymic BALB/c nude mice
# Experimental: as §1, §2, §3
# [1] = Caco-2 xenograft tumours, day 10, 4 h after dosing, score = staining intensity × staining area
# [2] = RKO xenograft tumours, day 10, 4 h after dosing, score = staining intensity × staining area
substance,measurement,setting,value
Cetuximab: anti-EGFR monoclonal antibody [reference compound],Ki67 histological score,Caco-2 xenografts; [1],6.6 ±1.95
same,p-AKT histological score,Caco-2 xenografts; [1],3.2 ±0.84
same,p-EGFR histological score,Caco-2 xenografts; [1],3.4 ±0.89
same,p-ERK histological score,Caco-2 xenografts; [1],3.4 ±0.89
same,tumour growth,"Caco-2 xenografts; Caco-2 xenograft, AZ304 10 mg/kg oral twice daily, Cetuximab 40 mg/kg i.p. twice per week, 10 days, vs vehicle",reduced tumour growth
same,Ki67 histological score,RKO xenografts; [2],9 ±2.12
same,p-AKT histological score,RKO xenografts; [2],5.2 ±1.10
same,p-EGFR histological score,RKO xenografts; [2],4.4 ±1.67
same,p-ERK histological score,RKO xenografts; [2],6.6 ±1.95
same,tumour growth,"RKO xenografts; RKO xenograft, AZ304 10 mg/kg oral twice daily, Cetuximab 40 mg/kg i.p. twice per week, 10 days, vs vehicle",reduced tumour growth
